Measurements as given in patent US20070219767A1, “ATOMIC COORDINATES OF ALBUMIN DRUG COMPLEXES AND METHOD OF USE OF PHARMACEUTICAL DEVELOPMENT” (priority 2003, published 2007).

Amino acid sequences for entries named in this document (tags omitted). Residues count along the entry.
UniProt P02768, 25-609: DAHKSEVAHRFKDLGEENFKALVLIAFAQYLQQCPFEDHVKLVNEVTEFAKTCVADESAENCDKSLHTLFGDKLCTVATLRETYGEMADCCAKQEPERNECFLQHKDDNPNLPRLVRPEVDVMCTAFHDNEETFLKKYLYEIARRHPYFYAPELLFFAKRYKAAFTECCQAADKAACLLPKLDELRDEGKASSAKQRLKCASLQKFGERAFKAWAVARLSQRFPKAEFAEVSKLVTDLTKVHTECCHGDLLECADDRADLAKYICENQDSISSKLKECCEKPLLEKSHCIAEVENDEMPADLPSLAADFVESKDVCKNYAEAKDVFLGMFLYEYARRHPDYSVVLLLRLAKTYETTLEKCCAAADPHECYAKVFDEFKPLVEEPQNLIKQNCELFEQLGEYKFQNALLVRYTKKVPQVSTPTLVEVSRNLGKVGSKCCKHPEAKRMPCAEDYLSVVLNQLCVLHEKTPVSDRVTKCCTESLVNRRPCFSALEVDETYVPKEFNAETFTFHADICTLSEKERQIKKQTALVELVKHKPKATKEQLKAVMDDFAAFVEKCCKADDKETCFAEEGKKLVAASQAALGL

Biological target: human serum albumin (Homo sapiens, UniProt P02768)
Experiment: X-ray crystallography of human serum albumin/drug complexes: binding location
Conditions: for Binding site of the Drug-Albumin Complex (site heading the list of contacting residues): Table II, Phase II, refined coordinates, listed residues within 5 Å of bound ligand

| Albumin Binding Location (Table I, Phase I, subdomain of HSA where the drug is found in the crystal complex) | Compound | Binding site of the Drug-Albumin Complex (site heading the list of contacting residues) |
| --- | --- | --- |
| – | COc1cc2nc(N3CCN(C(=O)C4CCCO4)CC3)nc(N)c2cc1OC (stereo not shown) [Terazosin] | Site IB, L115, V116, R117, P118, M123, A126, F134, K137, Y138, |
| – | CCOC(=O)[C@H](CCc1ccccc1)N[C@@H](C)C(=O)N1[C@H](C(=O)O)C[C@@H]2CCC[C@@H]21 [Ramipril] | Site IB, L115, V116, R117, P118, M123, Y138, L139, E141, I142, |
| IIA | Celocoxib | – |
| – | COc1cc2nc(N3CCN(C(=O)c4ccco4)CC3)nc(N)c2cc1OC [Prazosin] | Site IB, L115, V116, R117, P118, M123, F134, K137, Y138, I142, |
